Each structure is given as a SMILES string. This is a selection; strong and weak results do not stand in their true shares. The source made the active and inactive calls. Rule as the data show it: active = growth inhibition above about 70%; inactive = the rest.

Drawing on PubChem BioAssay (NCI), this text covers growth inhibition for 16 compounds.

Test [1] is described as follows: NCI Yeast Anticancer Drug Screen. Data for the rad50 strain (AID 155).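 Also: 0% = growth of vehicle-only cultures of the same strain.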 To be noted: S. cerevisiae rad50 strain growth inhibition; at 50.0 µM; active compounds read high.
The nature of test [2]: NCI Yeast Anticancer Drug Screen. Data for the mec2-1 strain (AID 157). To be noted: S. cerevisiae mec2-1 strain, at 50.0 µM, active compounds read high.
Test [3] can be described thus: NCI Yeast Anticancer Drug Screen. Data for the sgs1 mgt1 strain (AID 161).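 Also: 0% = growth of cultures given vehicle only.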 To be noted: S. cerevisiae sgs1 mgt1 strain, at 50.0 µM, active compounds read high.
A short description of test [4]: NCI Yeast Anticancer Drug Screen. Data for the cln2 rad14 strain (AID 165).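 Also: 0% = growth equal to vehicle treated cultures.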 To be noted: S. cerevisiae cln2 rad14 strain, at 50.0 µM, active compounds read high.
Test [5] is described as follows: NCI Yeast Anticancer Drug Screen. Data for the bub3 strain (AID 167). To be noted: S. cerevisiae bub3 mutant strain, at 50.0 µM, active compounds read high.
Test [6] is described as follows: NCI Yeast Anticancer Drug Screen. Data for the mlh1 rad18 strain (AID 175). To be noted: S. cerevisiae mlh1 rad18 strain growth inhibition; at 50.0 µM; active compounds read high.

Regarding `O=[N+]([O-])c1cc2nc(Cl)[nH]c2cc1[N+](=O)[O-]`, the growth inhibition was inactive: -7.35% in test [1]; inactive: -6.45% in test [2]; inactive: -1.05% in test [3]; inactive: -7.75% in test [4]; inactive: -16.4% in test [5]; inactive: 7.8% in test [6].

Regarding `Cn1c(=O)c([N+](=O)[O-])c(N=[N+]=[N-])c2ccccc21`, the growth inhibition in test [1] was active: 89.2%; in test [2] it was active: 92.5%; in test [3] it was active: 88.5%; in test [4], active: 86.9%; in test [5] it was active: 88%.

Turning to `C[C@H](N[N+](=O)[O-])C(N)=O`, the growth inhibition in test [1] was inactive: 7.65%; in test [2] it was inactive: -4.45%; in test [3], inactive: 22.9%; in test [4] it was inactive: 11.1%; in test [5] it was inactive: 22.4%; in test [6], inactive: 22.4%.

For the compound `NC(=O)N/N=C/c1ccc(N(CCCl)CCCl)cc1`, the growth inhibition in test [1] was inactive: -5.6%; in test [2] it was inactive: -2.8%; in test [3] it was inactive: 4.35%; in test [4] it was inactive: 8.25%; in test [5], inactive: 3.85%; in test [6], inactive: 0.25%.

As to `O=C(O)c1cccc(N(CCCl)CCCl)c1`, the growth inhibition in test [1] was inactive: 16.6%; in test [2] it was inactive: -16.6%; in test [3], inactive: -10.9%; in test [4], inactive: 23.3%; in test [5], inactive: -11.7%; in test [6] it was inactive: 14.3%.

With `Cc1ccc2cc(N(CCI)CCI)ccc2c1`, the growth inhibition in test [1] was inactive: 43%; in test [2] it was inactive: 11.6%; in test [3], inactive: 18.6%; in test [4], inactive: 28.6%; in test [5], inactive: -9%; in test [6], inactive: 40.2%.

On to `O=C1C(C(Cl)(Cl)Cl)OC(C(Cl)(Cl)Cl)N1C(O)C(Cl)(Cl)Cl` (stereo not given), for which the growth inhibition is inactive: -11.1% in test [1]; inactive: -17.8% in test [2]; inactive: -6.7% in test [3]; inactive: 5% in test [4]; inactive: 8.75% in test [5]; inactive: -18.1% in test [6].

Regarding `CN(C)CCC12CCCCC1CCc1ccccc12` (stereo not given), the growth inhibition in test [1] is inactive: 21.5%; in test [2], inactive: 3.9%; in test [3], inactive: 10%; in test [4], inactive: 1.5%; in test [5], inactive: -0.55%; in test [6], inactive: 18.4%.

For `CN1C(C)(C)C(Br)C(=O)C(Br)C1(C)C` (stereo not given), the growth inhibition in test [1] is inactive: -4%; in test [2], inactive: -12%; in test [3] it was inactive: -5.05%; in test [4], inactive: 1.25%; in test [5], inactive: 2.4%; in test [6] it was inactive: 2.75%.

For `O=P1(Nc2ncccn2)OC(CCl)=NC1c1ccc(C2N=C(CCl)OP2(=O)Nc2ncccn2)cc1` (stereo not given), the growth inhibition in test [1] was inactive: 20%; in test [2], inactive: -7%; in test [3], inactive: -3.2%; in test [4], inactive: -10.1%; in test [5], inactive: 8.6%; in test [6], inactive: 5.7%.

Regarding `O=C1CCC(C(=O)OC2CN3CCC2CC3)C(=O)N1` (stereo not given), the growth inhibition in test [1] is inactive: 21.9%; in test [2] it was inactive: 21.3%; in test [3], inactive: 21.1%; in test [4], inactive: 0.6%; in test [5], inactive: -2%; in test [6] it was inactive: 31.5%.

On to `CN(C)P(N)(Cl)(c1ccccc1)c1ccccc1`, for which the growth inhibition in test [1] was inactive: -1.65%; in test [2] it was inactive: 1.5%; in test [3], inactive: -9.5%; in test [4], inactive: -11.2%; in test [5], inactive: 11.7%; in test [6] it was inactive: 1.75%.

On to `CN1C(NC#N)=NP(=O)(O)C1(C)C`, for which the growth inhibition in test [1] is inactive: -23.2%; in test [2] it was inactive: -12.6%; in test [3] it was inactive: -27.4%; in test [4] it was inactive: 23.2%; in test [5], inactive: 27.6%; in test [6], inactive: -20.6%.

In the case of `C[As](C)SC(C)(C)C(N)C(=O)O` (stereo not given), the growth inhibition in test [1] was inactive: 2.6%; in test [2], inactive: -0.15%; in test [3], inactive: -12.1%; in test [4] it was inactive: -11.1%; in test [5], inactive: -12.1%; in test [6] it was inactive: -18.9%.

For `NS(=O)(=O)c1ccc(NC2=NCC(CI)S2)cc1` (stereo not given), the growth inhibition in test [1] was inactive: 2.45%; in test [2], inactive: -0.3%; in test [3], inactive: -9.55%; in test [4], inactive: 0%; in test [5], inactive: -11.4%; in test [6], inactive: -12.8%.

Turning to `O=P1(Oc2ccccc2)NNP2(=NP(Cl)(Cl)=NP(Cl)(Cl)=N2)NN1` (stereo not given), the growth inhibition is inactive: 7.35% in test [1]; inactive: -3.5% in test [2]; inactive: -21.9% in test [3]; inactive: -22.3% in test [4]; inactive: 0.1% in test [5]; inactive: 13.5% in test [6].
